Among the data in EP0590919A1, “Therapeutic agents for parkinson's disease” (KYOWA HAKKO KOGYO CO., LTD., priority 1992, dated 1994) are inhibition values, retold here.

By UniProt entry, the sequences of proteins in these tests, tags left out.
UniProt P47745, whole entry: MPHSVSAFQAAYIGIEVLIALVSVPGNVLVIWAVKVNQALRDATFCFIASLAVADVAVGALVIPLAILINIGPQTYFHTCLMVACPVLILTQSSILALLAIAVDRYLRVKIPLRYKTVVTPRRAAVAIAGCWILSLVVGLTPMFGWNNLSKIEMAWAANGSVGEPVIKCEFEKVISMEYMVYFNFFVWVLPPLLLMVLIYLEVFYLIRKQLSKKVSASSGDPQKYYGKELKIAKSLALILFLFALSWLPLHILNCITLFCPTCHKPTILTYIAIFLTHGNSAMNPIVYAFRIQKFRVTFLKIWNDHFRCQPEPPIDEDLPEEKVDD

In the assay the target is T1, A₁ receptor (Cavia porcellus, UniProt P47745).
T1 construct: Cerebrum of a guinea pig was suspended in ice-cooled 50 mM Tris; from tissue; host or cells: guinea pig cerebrum membrane preparation
The experiment in a line: Adenosine A₁ receptor binding test (³H-CHA binding). Also noted: species or system guinea pig. Particulars: read-out: Inhibition (%) A₁ Receptor.

Consider `CCn1c(=O)c2c(nc(/C=C/c3ccc(OC)c(OC)c3)n2C)n(CC)c1=O` [Compound 2, (E)-8-(3,4-Dimethoxystyryl)-1,3-diethyl-7-methylxanthine], for which the inhibition at 10 µM was 67% and the inhibition at 100 µM turned out to be 62%.
Taken in the same sequence, the figures for `CCn1c(=O)c2c(nc(/C=C/c3ccc(OC)c(C)c3OC)n2C)n(CC)c1=O` [Compound 14, (E)-8-(2,4-Dimethoxy-3-methylstyryl)-1,3-diethyl-7-methylxanthine] were 84% and 86%.

Usually inhibition stands for the change of the read-out against control, counted positive when it falls.
